Laboratory results reported in US20240174690A1, “ANNULATED 2-AMINO-3-CYANO THIOPHENES AND DERIVATIVES FOR THE TREATMENT OF CANCER” (BOEHRINGER INGELHEIM INTERNATIONAL GMBH, priority 2021, published 2024).

Sequences of proteins named here, by UniProt entry; tags and fusion partners are left off. A line that says so, or that is headed by a name, gives the form on record, which may keep a tag or linker. Residues count along the entry.
UniProt P01116, 1-164 with tags or gaps G12D limits assumed: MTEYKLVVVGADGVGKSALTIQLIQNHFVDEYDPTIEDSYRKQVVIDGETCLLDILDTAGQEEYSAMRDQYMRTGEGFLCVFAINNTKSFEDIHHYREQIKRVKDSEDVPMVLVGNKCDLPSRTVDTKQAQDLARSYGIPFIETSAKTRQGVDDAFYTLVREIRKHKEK
UniProt P01116, 1-164 with tags or gaps C118S/C51S/C80L/G12C limits assumed: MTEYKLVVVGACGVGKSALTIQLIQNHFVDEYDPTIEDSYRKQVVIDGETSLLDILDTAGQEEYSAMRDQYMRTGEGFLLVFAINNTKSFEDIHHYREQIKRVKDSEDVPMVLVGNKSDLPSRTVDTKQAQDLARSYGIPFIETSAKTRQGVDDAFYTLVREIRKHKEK

Columns and labels:
KRAS (G12D)::SOS1 = KRAS (G12D)::SOS1 (Homo sapiens (Human), UniProt P01116, G12D); assay: KRAS::SOS1 AlphaScreen binding assay, KRAS G12D; details: read-out: KRAS G12D IC50
Description: (§1) This assay can be used to examine the potency with which compounds according to the invention binding to (mutated) KRAS inhibit the protein-protein interaction between SOS1 and (mutated) KRAS e.g., KRAS WT, KRAS G12C, KRAS G12D, KRAS G12V, KRAS G13D. […] Low IC50 values in this assay setting are indicative of strong inhibition of protein-protein interaction between SOS1 and KRAS:
(§2) These assays measure the inhibitory effect of compounds on KRAS mutant protein-protein interactions using the Alpha Screen technology by Perkin Elmer. […]
(§3) Plates are kept at room temperature in a darkened incubator. After an additional 60 minutes incubation time the signal is measured in a PerkinElmer Envision HTS Multilabel Reader using the AlphaScreen specs from PerkinElmer. […]
(§4) As internal control known inhibitors of KRAS mutant::SOS1 interaction can be measured on each compound plate. […]

KRAS (G12C)::SOS1 = KRAS (G12C)::SOS1 (Homo sapiens (Human), UniProt P01116, C118S/C51S/C80L/G12C); assay: KRAS::SOS1 AlphaScreen binding assay, KRAS G12C; details: read-out: KRAS G12C IC50
Description: as §1, §2, §3, §4

SAS cells = assay: SAS CTG proliferation assay (120 h) (HNSCC, wt amplified); details: read-out: SAS IC50
Description: SAS CTG Proliferation Assay (120 h) (HNSCC, Wt Amplified)
SAS cells (JCRB0260) are dispensed into 384-well plates, flat and clear bottom (Greiner, PNr. 781091) at a density of 300 cells per well in 60 μL DMEM:F12 (Gibco 31330-038)+10% Fetal Calf Serum (HyClone, PNr.: SH30084.03) and incubated at 37° C. in a CO2 incubator overnight. The next day, compounds (10 mM stock in DMSO) are added with the ECHO acoustic liquid handler system (Beckman Coulter), including DMSO controls. Plates are incubated for 120 h, and cell viability is measured using CellTiter-Glo luminescent cell viability reagent (Promega product code G7570). Viability (stated as percent of control) is defined as relative luminescence units RLU of each well divided by the RLU of cells in DMSO controls. IC50 values are determined from viability measurements by non-linear regression using a four-parameter model.

NCI-H2122 cells = assay: NCI-H2122 CTG proliferation assay (120 h) (NSCLC, G12C); details: read-out: H2122 IC50
Description: NCI-H2122 CTG Proliferation Assay (120 h) (NSCLC, G12C)
The CTG assay is designed to measure quantitatively the proliferation of NCI-H2122 cells (ATCC CRL-5985), using the CellTiter Glow Assay Kit (Promega G7571). Cells are grown in RPMI medium (ATCC) supplemented with Fetal Calf Serum (Life Technologies, Gibco BRL, Cat. No. 10270-106). On “day 0” 200 NCI-H2122 cells are seeded in 60 μL RPMI ATCC+10% FCS+Penstrep in a black 384-well plate, flat and clear bottom (Greiner, PNr. 781091). Cells are then incubated in the plates at 37° C. in a CO2 incubator overnight. On day 1, compounds (10 mM stock in DMSO) are added with the ECHO acoustic liquid handler system (Beckman Coulter), including DMSO controls. Plates are incubated for 120 h, and cell viability is measured using CellTiter-Glo luminescent cell viability reagent (Promega product code G7570). Viability (stated as percent of control) is defined as relative luminescence units RLU of each well divided by the RLU of cells in DMSO controls. IC50 values are determined from viability measurements by non-linear regression using a four parameter model.

Cc1ccncc1-c1cn(-c2cc(O[C@@H](C)[C@@H]3CCCN3C)nc(-c3noc4c3CCC[C@@]43CCCc4sc(N)c(C#N)c43)n2)nn1
IC50 (KRAS (G12D)::SOS1): 2 nM
IC50 (KRAS (G12C)::SOS1): 2 nM
IC50 (SAS cells): 10 nM
IC50 (NCI-H2122 cells): 1160 nM
